The numbers were not newly measured in US20030024618A1, “Gas-generating agent composition comprising triazine derivative” (published 2003), which cites them from elsewhere.

Each structure is given as a SMILES string.

In this data set the test system is rat.

Turning to `NNc1nc(NN)nc(NN)n1`, the “LD50 (oral-rat)” value is reported as 3,161 mg/kg.
